Experimental data taken from PubChem BioAssay AID923 (National Center for Advancing Translational Sciences (NCATS), 2007).
Only a part is listed here, and it is no random draw. Calls of active or inactive are those of the source. Calls follow the shape of the dose curve; as a rule, active = well fitted activation curve with a large enough effect; inconclusive = small, poorly fitted or top-dose-only effect; inactive = flat fitted curve, though single readings scatter.

Assay: qHTS Assay for Allosteric/Competitive Inhibitors of Caspase-1: Spectroscopic Profiling in AFC Spectral Region; also: 0% is about no effect
Settings: compound fluorescence, AFC spectral region (405/520 nm); at 57.5 µM (top of the series) unless noted

SMILES | fluorescence increase
NC(=O)Nc1ccc([As](=O)(O)O)cc1 | inactive: -1.56% [at 25.7 µM]
CN(C(=O)Cc1ccc(Cl)c(Cl)c1)[C@H]1CCCC[C@@H]1N1CCCC1 | inactive: -1.67%
